Consider one molecule from USRE49949E1, “Reducing risk of contracting clostridium-difficile associated disease” (The Board of Regents of the Nevada System of Higher …, priority 2012, dated 2024).

Structures are written as SMILES.

The assay relates to C. difficile strain 630 spores. Description: CamSA dosage timing in CDI prevention. The settings on record: 300 mg/Kg after spore challenge.

Take `C[C@H](CCC(=O)Nc1cccc(S(=O)(=O)O)c1)[C@H]1CC[C@H]2[C@@H]3[C@H](O)C[C@@H]4C[C@H](O)CC[C@]4(C)[C@H]3C[C@H](O)[C@]12C` [CamSA, 3-[(3α,7α,12α-trihydroxy-24-oxo-5β-cholan-24-yl)amino]benzenesulfonic acid]: the “window for CamSA to be effective in CDI prevention” value was ≥ 6 h.
